Usually IC50 stands for the concentration that inhibits the measured activity by half. The low end stands for higher potency, the high end for lower potency.

Protein sequences, listed by entry. Tags and fused reporters are not part of them. Lines headed by an entry give the natural chain unless they say otherwise; changes in a name come on top.
UniProt O75116: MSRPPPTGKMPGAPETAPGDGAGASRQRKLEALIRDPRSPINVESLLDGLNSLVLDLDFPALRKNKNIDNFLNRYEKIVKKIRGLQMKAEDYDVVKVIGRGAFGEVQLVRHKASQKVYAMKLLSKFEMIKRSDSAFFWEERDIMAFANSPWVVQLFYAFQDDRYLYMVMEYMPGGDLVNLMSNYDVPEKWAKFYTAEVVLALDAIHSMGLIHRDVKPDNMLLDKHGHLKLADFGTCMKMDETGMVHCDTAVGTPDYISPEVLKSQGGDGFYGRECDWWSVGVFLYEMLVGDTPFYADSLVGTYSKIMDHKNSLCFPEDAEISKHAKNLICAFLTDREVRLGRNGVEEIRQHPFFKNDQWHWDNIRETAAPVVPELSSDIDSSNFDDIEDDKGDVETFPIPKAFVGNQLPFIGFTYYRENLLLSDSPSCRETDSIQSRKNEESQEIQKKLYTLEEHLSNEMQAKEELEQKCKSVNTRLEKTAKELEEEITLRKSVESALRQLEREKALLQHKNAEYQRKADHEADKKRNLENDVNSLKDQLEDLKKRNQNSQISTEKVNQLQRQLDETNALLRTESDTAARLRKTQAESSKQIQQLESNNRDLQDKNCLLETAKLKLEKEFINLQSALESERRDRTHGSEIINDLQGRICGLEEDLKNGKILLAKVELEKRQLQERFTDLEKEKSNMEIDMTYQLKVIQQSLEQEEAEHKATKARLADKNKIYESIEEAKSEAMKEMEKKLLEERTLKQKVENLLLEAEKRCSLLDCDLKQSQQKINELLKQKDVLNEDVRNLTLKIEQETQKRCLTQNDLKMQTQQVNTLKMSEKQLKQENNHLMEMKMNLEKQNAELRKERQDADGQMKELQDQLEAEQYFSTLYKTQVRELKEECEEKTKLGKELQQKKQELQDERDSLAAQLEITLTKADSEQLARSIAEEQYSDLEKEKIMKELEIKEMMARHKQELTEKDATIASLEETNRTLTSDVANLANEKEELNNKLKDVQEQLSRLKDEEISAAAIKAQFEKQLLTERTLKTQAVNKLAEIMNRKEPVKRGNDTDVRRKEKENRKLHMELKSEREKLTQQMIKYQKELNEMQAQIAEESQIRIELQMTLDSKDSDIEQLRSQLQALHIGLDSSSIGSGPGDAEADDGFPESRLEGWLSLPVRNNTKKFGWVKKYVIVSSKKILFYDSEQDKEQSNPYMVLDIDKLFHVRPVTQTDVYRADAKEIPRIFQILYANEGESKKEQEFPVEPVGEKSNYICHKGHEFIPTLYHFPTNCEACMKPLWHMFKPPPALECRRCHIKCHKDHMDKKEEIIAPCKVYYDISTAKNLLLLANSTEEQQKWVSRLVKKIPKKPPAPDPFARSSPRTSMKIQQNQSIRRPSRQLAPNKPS

Structures are written as SMILES.

From ChEMBL document CHEMBL1152196, “Benzimidazole- and benzoxazole-based inhibitors of Rho kinase” (Bioorg Med Chem Lett, 2008) come the findings set out here.

This assay deals with Rho-associated protein kinase 2 (Homo sapiens, UniProt O75116). Put plainly: Inhibition of ROCK2.

`COc1ccc2c(c1)CC(c1nc3ccc(-c4ccnc(N)n4)cc3[nH]1)CO2` (stereo unspecified): the IC50 was found to be 2 nM.
